Consider one compound from ChEMBL document CHEMBL1148798, “High-efficacy 5-HT1A agonists for antidepressant treatment: a renewed opportunity” (J Med Chem, 2007).

Chains of the proteins cited; added tags and fusions are not shown.
UniProt P08908, whole entry: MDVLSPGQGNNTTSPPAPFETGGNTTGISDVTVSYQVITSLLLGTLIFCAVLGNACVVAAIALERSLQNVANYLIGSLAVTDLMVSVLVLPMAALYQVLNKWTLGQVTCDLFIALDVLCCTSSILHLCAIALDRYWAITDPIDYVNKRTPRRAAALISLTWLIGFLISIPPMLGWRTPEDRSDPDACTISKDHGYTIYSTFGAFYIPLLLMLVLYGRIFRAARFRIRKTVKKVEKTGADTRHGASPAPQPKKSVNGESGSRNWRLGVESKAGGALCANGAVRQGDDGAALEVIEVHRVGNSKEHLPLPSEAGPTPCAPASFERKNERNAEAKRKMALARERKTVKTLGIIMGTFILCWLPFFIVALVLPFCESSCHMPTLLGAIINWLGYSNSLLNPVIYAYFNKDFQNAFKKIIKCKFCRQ

This experiment deals with 5-hydroxytryptamine receptor 1A (Homo sapiens, UniProt P08908). In words: Agonist activity at human 5HT1A receptor expressed in C6 cells assessed as stimulation of [35S]GTP-gamma-S binding relative to 5-hydroxytryptamine. In kind it is functional, cell-based. The essentials: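 Membranes from C6-glial cells expressing h5-HT1A, diluted 20-fold in 20 mM HEPES with 30 µM GDP, 100 mM NaCl, 3 mM MgCl2, 0.2 mM ascorbic acid (16-38 µg protein). Compound preincubated 30 min at 25 °C, then 500 pM [35S]GTPγS added. Six concentrations tested. Nonspecific binding with 10 µM GTPγS.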
For orientation: GTPγS is a poorly hydrolysed GTP analogue; its binding reports G protein activation.

Usually Emax stands for the size of the effect at its maximum, as opposed to the concentration needed. Regarding `Cc1ccc(CNCC2(F)CCN(C(=O)c3ccc(F)c(Cl)c3)CC2)nc1` [BEFIRADOL], the Emax came to 74.7%.
